This is an account of results in patent publication US20090053168A1, “TREATMENTS OF B-CELL PROLIFERATIVE DISORDERS” (priority 2007, published 2009).

Molecules are shown by their SMILES.

This experiment deals with MM.1R cells. Put plainly: Anti-proliferation assay (ATPLite, 72 h), MM.1R. To be noted: in combination with HE-NECA. The class given is cell-based.

Consider `O=C1C2CC=CCC2C(=O)N1SC(Cl)(Cl)C(Cl)Cl` (stereo not shown), for which the “Synergy Score” value was 1.37.
